Results: patent US20250177396A1, “POLO-LIKE KINASE 4 (PLK4) INHIBITORS, PHARMACEUTICAL COMPOSITIONS, METHODS OF PREPARATION AND USES THEREOF” (Repare Therapeutics Inc., priority 2022, published 2025)

The chains behind the UniProt entries cited, without tags or fusion partners.
UniProt O00444, whole entry: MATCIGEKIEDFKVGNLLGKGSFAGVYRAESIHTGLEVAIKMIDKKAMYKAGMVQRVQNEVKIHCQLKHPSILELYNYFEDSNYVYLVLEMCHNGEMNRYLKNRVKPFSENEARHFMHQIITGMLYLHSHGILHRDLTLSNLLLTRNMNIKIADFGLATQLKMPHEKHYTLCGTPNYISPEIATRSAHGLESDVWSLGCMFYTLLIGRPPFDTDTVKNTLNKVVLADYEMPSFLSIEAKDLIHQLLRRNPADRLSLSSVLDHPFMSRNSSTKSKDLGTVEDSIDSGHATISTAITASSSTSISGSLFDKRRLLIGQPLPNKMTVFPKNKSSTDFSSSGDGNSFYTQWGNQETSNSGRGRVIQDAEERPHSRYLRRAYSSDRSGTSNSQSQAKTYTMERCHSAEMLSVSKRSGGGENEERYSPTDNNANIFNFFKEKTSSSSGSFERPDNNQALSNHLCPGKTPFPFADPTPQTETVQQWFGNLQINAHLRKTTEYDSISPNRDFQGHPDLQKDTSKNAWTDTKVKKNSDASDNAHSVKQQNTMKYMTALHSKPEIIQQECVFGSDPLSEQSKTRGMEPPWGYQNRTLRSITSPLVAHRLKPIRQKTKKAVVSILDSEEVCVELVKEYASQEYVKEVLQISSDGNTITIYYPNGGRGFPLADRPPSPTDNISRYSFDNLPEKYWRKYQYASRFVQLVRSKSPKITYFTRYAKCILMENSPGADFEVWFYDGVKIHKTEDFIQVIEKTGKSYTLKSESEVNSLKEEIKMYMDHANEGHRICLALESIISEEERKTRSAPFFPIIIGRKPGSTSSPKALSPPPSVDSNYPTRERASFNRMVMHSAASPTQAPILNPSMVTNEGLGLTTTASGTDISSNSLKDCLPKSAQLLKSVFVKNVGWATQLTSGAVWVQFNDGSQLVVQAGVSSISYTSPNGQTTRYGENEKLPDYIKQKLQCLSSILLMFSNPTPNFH

Molecular target: PLK4 (Homo sapiens, UniProt O00444)
Assay: PLK4 NanoBRET target engagement assay
Type: binding
Conditions: read-out: PLK4 NanoBRET IC50; HEK293 T cells transfected with PLK4 NanoLuc fusion vector; K-5 tracer; 2 hrs incubation
Procedure: To determine the affinity of Compounds described herein in the PLK4 NanoBRET target engagement assay, HEK293 T cells (ATCC Product Number CRL-3216) are first transfected with the PLK4 NanoLuc fusion vector DNA and Transfection carrier DNA using the Fugene HD Transfection reagent in Opti-MEM No Phenol Red buffer. After an overnight incubation in a 37° C./5% CO2 incubator, the transfected HEK293 T cells are trypsinized, counted, and resuspended in Opti-MEM No Phenol Red buffer at a concentration of 200000 cells/mL. White 96-well plates are then plated with 85 μL of cells (17000 cells/well) to which 5 μL of the 20×K-5 tracer solution diluted in tracer dilution buffer is added. Finally, 10 μL of the 10× compounds are added and the plates and then incubated in a 37° C./5% CO2 incubator for 2 hrs. After the incubation, a 50 uL 3× solution of the substrate/inhibitor mix is added to the cells. The plate is then transferred in the Envision plate reader where the Acceptor emission (610 nm) and the Donor emission (450 nm) are measured.
The IC50 of compounds is determined as follows: • 1. The ratio between the Acceptor emission (610 nm)/Donor emission (450 nm) is calculated. • 2. This ratio is then multiplied by 1000 to obtain the mBRET units (multiplying by 1000 is an arbitrary step that simply makes the data easier to interpret; it has no impact on the data set itself) • 3. […]

IC50 [µM]	Compound
1.2	COc1c(Nc2cc(C)[nH]n2)nc(Oc2ccc(S(C)(=O)=O)cc2)nc1-c1cnn(C)c1
1.6	COc1c(Nc2cc(C)[nH]n2)nc(N(C)c2ccc(S(C)(=O)=O)cc2)nc1-c1cnn(C)c1 [Compound 83]
